These results are taken from US20090143285A1, “TARGET PROTEIN AND TARGET GENE FOR DRUG DISCOVERY AND SCREENING METHOD” (REVERSE PROTEOMICS RESEARCH INSTITUTE CO., LTD., priority 2005, published 2009).

The Kd is the constant that tells how readily two partners part at equilibrium. Lower therefore signals higher affinity.

One assay has as its target T1, FLJ41991-derived protein (Homo sapiens, UniProt P57764, E293G).
T1 construct: His-tag (N); made in house; host or cells: Escherichia coli BL21star(DE3)pLysS (pDEST17)
T1 sequence (P57764 265-484 E293G): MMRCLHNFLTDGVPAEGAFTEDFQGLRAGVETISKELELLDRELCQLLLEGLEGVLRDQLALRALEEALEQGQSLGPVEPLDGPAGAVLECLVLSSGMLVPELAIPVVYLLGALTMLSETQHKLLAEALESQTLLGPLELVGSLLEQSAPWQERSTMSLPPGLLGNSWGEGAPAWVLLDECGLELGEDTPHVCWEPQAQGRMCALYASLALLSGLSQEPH
The experiment in a line: SEC/MS interaction analysis, FLJ41991-derived protein (GSDMDC1). The settings on record: compound 12.5 μM, protein 25 μM. The assay is classed as binding. An excerpt:
To analyze the interactions between commonly used drugs and proteins expressed from human full-length cDNA clones while keeping both the proteins and the compounds in non-modified, non-immobilized state, size exclusion chromatography (SEC) and mass analysis were used in combination. The specific procedures are shown below.
The compound-protein mixture prepared in step 1 was subjected to chromatography using an SEC column, the compound and the protein were separated by SEC, and the compound that interacted with the bound compound or protein contained in the protein fraction was analyzed using a mass analyzer.
Protein concentrations were measured using BCA Protein Assay (PIERCE), in consideration of the purity calculated by SDS-PAGE.
Mass analysis was performed using LCQ DECA XP (Thermoelectron) or Q-TOF micro (Micromass), equipped with an ESI probe. […]
In the 384-well spin column method, Unifilter 100 (Whatman), packed with 10 μL (dry volume) of Bio-Gel P6 (BIO-RAD) and swollen with milliQ water, was used as the SEC column. […] 2-μL of mass analysis samples were injected using an autosampler at 2-minute intervals; the mass spectral intensity of the compound was measured to retrieve the spectral intensity of the pharmaceutical compound contained in the SEC spin column filtrate (protein fraction eluted from SEC).

Assay [1] addresses FLJ37909-derived protein (human) (UniProt Q9BTT0). Description: SPR (BIACORE3000), His-tagged protein immobilised on the chip, compound injected. For orientation: SPR reads the build-up and loss of mass on a sensor chip optically.

For the compound `O=C(c1ccc(OCCN2CCCCC2)cc1)c1c(-c2ccc(O)cc2)sc2cc(O)ccc12` [raloxifene], the “spectrum intensity of the compound in the SEC spin column filtrate” value at FLJ41991-derived protein worked out at 331748.

Take cyclosporin A (peptide): the Kd in assay [1] was 1500 µM.
